In general, Ki refers to the dissociation constant of the complex between target and ligand, obtained from inhibition or displacement. High values mean weaker binding, low ones tighter binding.

The chains behind the UniProt entries cited, without tags or fusion partners.
UniProt P23975, whole entry, looked up: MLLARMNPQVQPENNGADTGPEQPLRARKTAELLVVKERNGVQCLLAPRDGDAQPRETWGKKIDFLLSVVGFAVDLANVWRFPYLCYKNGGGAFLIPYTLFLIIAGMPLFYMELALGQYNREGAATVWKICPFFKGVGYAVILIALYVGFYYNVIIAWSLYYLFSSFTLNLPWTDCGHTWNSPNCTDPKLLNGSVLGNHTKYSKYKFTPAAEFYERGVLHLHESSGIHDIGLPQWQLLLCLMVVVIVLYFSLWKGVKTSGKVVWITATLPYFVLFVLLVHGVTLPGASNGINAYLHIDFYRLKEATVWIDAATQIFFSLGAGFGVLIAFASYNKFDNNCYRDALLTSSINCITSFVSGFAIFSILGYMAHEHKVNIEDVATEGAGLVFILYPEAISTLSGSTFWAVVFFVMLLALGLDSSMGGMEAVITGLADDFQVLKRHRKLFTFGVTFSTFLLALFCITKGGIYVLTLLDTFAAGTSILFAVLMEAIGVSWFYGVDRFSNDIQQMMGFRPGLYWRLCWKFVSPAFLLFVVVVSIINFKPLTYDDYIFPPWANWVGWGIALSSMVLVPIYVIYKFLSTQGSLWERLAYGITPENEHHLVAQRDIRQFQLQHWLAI

The results in this text go back to ChEMBL document CHEMBL2176989, “Design, synthesis, and pharmacological evaluation of piperidin-4-yl amino aryl sulfonamides: novel, potent, selective, orally active, and brain penetrant 5-HT₆ receptor antagonists” (J Med Chem, 2012).

For this test, the target named is Sodium-dependent noradrenaline transporter (Homo sapiens, UniProt P23975). In words: Binding affinity to NOR transporter.

The compound `COc1ccc(S(=O)(=O)n2cc(C)c3cc(Cl)cnc32)cc1NC1CCN(C)CC1` registered a Ki of 2.13 µM.

`COc1ccc(S(=O)(=O)n2cc(C)c3cc(Cl)ccc32)cc1NC1CCN(C)CC1` had a Ki of 2.01 µM.
